Data: US10112929B2, “Lactams as inhibitors of rock” (BRISTOL-MYERS SQUIBB COMPANY, priority 2015, dated 2018)

Protein sequences, listed by entry. Tags and fused reporters are not part of them.
UniProt O75116, whole entry, species assumed: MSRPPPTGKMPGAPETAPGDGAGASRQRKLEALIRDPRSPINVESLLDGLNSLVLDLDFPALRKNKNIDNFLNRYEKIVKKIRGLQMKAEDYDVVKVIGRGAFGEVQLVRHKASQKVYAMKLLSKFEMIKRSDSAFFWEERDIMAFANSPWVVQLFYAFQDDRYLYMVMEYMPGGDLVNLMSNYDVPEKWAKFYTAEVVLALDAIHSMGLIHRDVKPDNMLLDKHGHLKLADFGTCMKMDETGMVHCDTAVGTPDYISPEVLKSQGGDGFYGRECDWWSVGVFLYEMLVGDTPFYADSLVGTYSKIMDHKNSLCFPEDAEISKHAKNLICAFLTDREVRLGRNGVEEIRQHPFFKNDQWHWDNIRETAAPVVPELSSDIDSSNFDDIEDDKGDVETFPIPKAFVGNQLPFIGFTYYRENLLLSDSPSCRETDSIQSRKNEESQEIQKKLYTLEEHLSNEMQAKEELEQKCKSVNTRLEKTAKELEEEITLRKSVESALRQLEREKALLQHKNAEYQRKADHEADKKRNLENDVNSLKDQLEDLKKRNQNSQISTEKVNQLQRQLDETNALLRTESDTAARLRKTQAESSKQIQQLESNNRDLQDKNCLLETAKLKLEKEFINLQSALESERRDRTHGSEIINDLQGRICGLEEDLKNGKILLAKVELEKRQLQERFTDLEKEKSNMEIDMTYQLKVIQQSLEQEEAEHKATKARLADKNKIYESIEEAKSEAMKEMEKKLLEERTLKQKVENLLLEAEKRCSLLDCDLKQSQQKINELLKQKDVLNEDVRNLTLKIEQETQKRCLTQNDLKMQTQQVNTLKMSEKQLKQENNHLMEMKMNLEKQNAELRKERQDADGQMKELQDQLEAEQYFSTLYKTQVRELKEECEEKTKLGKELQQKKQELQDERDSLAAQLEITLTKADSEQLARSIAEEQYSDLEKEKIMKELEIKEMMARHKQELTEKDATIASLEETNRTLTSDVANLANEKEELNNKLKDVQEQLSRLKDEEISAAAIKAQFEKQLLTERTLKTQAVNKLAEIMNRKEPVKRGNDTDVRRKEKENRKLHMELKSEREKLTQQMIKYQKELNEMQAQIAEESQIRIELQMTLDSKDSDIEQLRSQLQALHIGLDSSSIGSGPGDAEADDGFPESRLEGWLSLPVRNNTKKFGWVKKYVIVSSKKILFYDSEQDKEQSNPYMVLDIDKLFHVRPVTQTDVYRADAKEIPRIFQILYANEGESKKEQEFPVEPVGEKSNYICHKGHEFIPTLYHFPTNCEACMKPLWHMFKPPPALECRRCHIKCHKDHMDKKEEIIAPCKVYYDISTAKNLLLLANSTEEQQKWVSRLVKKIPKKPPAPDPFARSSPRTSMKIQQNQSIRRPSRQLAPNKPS

Target: ROCK2 (Homo sapiens (Human), UniProt O75116)
Assay: biochemical
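Note: rho kinase enzyme reaction halted with EDTA, phospho- and non-phospho peptide separated for read-out, kinase activity inhibition derived across a dose-response series, DMSO under 2%.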

SMILES: COc1ccc(F)cc1NC1CCN(c2ccc(-c3cn[nH]c3)c(OC)c2)C1=O (single isomer, unassigned) [Example 148, 3-((5-fluoro-2-methoxyphenyl)amino)-1-(3-methoxy-4-(1H-pyrazol-4-yl)phenyl) pyrrolidin-2-one]
- IC50: 0.01 to 0.1 µM
